Measurements: patent US20220348563A1, “KDM INHIBITORS AND USES THEREOF” (DANA-FARBER CANCER INSTITUTE, INC., priority 2019, published 2022)
pIC50: −log10 of the molar value.

Protein sequences, listed by entry. Tags and fused reporters are not part of them.
UniProt Q9Y4C1, whole entry: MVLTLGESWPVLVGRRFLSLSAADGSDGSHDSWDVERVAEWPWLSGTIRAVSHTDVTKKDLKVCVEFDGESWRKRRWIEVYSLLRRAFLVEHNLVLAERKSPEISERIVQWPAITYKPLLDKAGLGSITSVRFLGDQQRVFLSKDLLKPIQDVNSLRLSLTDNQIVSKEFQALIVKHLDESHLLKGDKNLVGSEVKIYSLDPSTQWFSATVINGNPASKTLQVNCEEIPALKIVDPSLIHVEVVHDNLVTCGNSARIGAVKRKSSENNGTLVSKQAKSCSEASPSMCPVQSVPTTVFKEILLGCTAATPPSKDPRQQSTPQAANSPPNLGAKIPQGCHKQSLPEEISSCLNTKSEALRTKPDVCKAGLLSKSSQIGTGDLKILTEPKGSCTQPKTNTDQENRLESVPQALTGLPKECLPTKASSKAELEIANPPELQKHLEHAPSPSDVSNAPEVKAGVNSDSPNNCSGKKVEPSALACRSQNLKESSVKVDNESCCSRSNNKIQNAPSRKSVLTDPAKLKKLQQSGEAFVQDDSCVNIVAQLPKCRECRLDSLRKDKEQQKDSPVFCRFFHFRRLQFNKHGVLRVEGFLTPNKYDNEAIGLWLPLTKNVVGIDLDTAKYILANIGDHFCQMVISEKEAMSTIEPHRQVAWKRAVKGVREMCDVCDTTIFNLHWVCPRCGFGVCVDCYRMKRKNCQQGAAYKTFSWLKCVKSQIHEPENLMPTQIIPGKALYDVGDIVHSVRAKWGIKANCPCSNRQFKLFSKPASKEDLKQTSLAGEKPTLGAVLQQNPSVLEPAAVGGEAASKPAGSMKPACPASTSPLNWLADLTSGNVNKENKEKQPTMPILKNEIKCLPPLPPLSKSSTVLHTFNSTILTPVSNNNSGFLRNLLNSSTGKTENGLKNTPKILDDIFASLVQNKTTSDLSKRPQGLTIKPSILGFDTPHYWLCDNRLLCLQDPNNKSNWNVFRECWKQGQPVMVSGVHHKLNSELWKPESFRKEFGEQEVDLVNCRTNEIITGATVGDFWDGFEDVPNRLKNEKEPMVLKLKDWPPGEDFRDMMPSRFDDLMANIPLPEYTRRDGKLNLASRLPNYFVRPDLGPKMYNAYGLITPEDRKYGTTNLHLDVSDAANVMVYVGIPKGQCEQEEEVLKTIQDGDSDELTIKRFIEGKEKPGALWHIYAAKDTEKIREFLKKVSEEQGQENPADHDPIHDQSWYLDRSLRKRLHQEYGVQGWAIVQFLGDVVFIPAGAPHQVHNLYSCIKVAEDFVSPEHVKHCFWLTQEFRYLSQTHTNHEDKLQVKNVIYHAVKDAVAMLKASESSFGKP

Target: KDM3A (Homo sapiens, UniProt Q9Y4C1)
Test: KDM3 AlphaScreen assay (Table 2, ASSAY 9)
Format: biochemical

Structure (SMILES): CN(C)c1ccc(-c2ccc(OC3CCN(C(=O)c4ccccc4OC(=O)c4ccccc4OC(=O)N4CCOCC4)CC3)nc2)cc1
- pIC50: 4.61
